Test results published in PubChem BioAssay AID1135 (Sanford-Burnham Center for Chemical Genomics, 2008).
This is a selection; strong and weak results do not stand in their true shares. Activity calls are given as the source filed them.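 How the source made its calls: active means over 50% inhibition of tissue-nonspecific alkaline phosphatase at 20 µM in the single-dose screen; inactive means the rest.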

The chains behind the UniProt entries cited, without tags or fusion partners.
UniProt P05186, whole entry: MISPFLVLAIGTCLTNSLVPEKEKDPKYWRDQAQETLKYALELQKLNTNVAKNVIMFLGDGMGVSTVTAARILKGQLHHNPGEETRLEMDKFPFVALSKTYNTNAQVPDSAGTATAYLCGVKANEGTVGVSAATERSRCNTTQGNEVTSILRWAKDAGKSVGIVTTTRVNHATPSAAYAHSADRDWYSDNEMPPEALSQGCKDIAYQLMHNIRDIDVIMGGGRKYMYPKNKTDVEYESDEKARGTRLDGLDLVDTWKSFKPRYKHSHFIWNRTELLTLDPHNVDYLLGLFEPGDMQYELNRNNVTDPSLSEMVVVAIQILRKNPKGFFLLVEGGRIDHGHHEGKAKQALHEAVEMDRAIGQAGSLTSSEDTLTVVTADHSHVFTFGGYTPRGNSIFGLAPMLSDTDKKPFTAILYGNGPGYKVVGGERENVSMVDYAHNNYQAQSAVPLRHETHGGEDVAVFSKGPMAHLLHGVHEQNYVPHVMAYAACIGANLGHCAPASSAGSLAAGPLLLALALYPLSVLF

Biological target: Alkaline phosphatase, tissue-nonspecific isozyme (Homo sapiens) (UniProt P05186)
Assay: human TNAP enzyme inhibitors, primary screen, biochemical, luminescent, high phosphate acceptor level, uHTS (AID 1135);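 further: plate controls were DMSO wells for no effect and EDTA-quenched wells as full inhibition for full effect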
Conditions: purified TNAP, CDP-star luminescence, 1 M DEA; at 20 µM; hits give high values

SMILES | inhibition
O=C(NCC1(N2CCOCC2)CCCCC1)c1cc(=O)[nH]c2ccccc12 | inactive: -2.2%
CN1CCN(CCOC(=O)C(O)(c2ccccc2)c2ccccc2)CC1 | inactive: -6.2%
COc1ccc(NC2CCN(C(=O)OC(C)(C)C)CC2)cc1 | inactive: -3.5%
N#CC1(Nc2ccccc2)CCN(CCc2ccccc2)CC1 | inactive: -7.6%
O=C(NCC1(N2CCCCC2)CCCCC1)c1cccc([N+](=O)[O-])c1 | inactive: -1.2%
CC(C)c1ccc(NC2CCN(C(=O)OC(C)(C)C)CC2)cc1 | inactive: -5.2%
COc1ccc(CN(CCCl)CCCl)cc1Cl | inactive: -7.2%
CN(C)c1cccc(C(=O)NCC2(N3CCCCC3)CCCCC2)c1 | inactive: -3.6%
O=C(NCC1(N2CCOCC2)CCCCC1)c1cc2ccccc2o1 | inactive: -3.6%
O=C(OC1CN2CCC1CC2)C1c2ccccc2Oc2ccccc21 (stereo not given) | inactive: -1%
CCOC(=O)N1CCC(Nc2ccc(OC)cc2)CC1 | inactive: -0.3%
COc1ccc(C(=O)NCC2(N3CCCCC3)CCCCC2)c(OC)c1OC | inactive: -5%
COc1ccc(NC2CCN(CCc3ccccc3)CC2)c(OC)c1 | inactive: -4.2%
CCN1CCC(Nc2cccc(F)c2)CC1 | inactive: -3.6%
CN(C)c1ccc(C(=O)NCC2(N3CCCCC3)CCCCC2)cc1 | inactive: -5.4%
Fc1ccccc1NC1CCN(Cc2ccccc2)CC1 | inactive: -9.9%
COc1cc(OC)cc(C(=O)NCC2(N3CCOCC3)CCCCC2)c1 | inactive: -0.5%
CCC(CO)(C(=O)OC1CN2CCC1CC2)c1ccccc1 (stereo not given) | inactive: -2.8%
CCOc1ncccc1C(=O)NCC1(N2CCOCC2)CCCCC1 | inactive: -5.1%
CC(C)(C)OC(=O)N1CCC(Nc2ccccc2)CC1 | inactive: -1.2%
N/C(=N\O)c1c(N)no[n+]1[O-] | inactive: -5%
O=C(OC1CN2CCC1CC2)C1c2ccccc2C=Cc2ccccc21 (stereo not given) | inactive: -5.6%
COc1ccc(C(=O)NCC2(N3CCOCC3)CCCCC2)cc1OC | inactive: -4.9%
c1ccc(CN2CCC(Nc3ccccc3)CC2)cc1 | inactive: -3.9%
N#Cc1ccc(C(=O)NCC2(N3CCCCC3)CCCCC2)cc1 | inactive: -3.1%
